{"source": "patent US10335417B2", "about": "“Thiazideamide derivative and use thereof” (Institute of Pharmacology and Toxicology Academy of …, priority 2015, dated 2019)", "tested_on": "MDCK-MDR1 cells", "experiment": "MDCK-MDR1 cell monolayer drug transport experiment (apparent permeability, model of blood-brain barrier)", "details": "HBSS, 37° C., direction not given", "from_the_text": "MDCK-MDR1 cells were monolayer cells which highly express P-gp transporter after transfection of MDCK (Madin-Darby canine kidney epithelial cell) with MDR1 gene. Due to its density and high expression of efflux protein, the monolayer has similarity compared to blood-brain barrier (BBB) structure and now can be used as one of models for evaluating the ability of passing through BBB. In the invention, MDCK-MDR1 cells were used to study the membrane permeability of the compounds according to the invention, and to primarily evaluate its ability of passing through BBB.\nThe frozen MDCK-MDR1 cells were quickly thawed in a 37° C. water bath. […]\nAfter washing with 37° C. […] The amount of Rho-123 permeated to the bottom well was determined by fluorospectrophotometer, wherein the emission wavelength was […], and the excitation wavelength was 530 nm. […]\nThe apparent permeability coefficient (Papp) of a drug reflects the ability of the drug to pass through cell monolayer and the drug absorption rate and extent. It can be calculated in accordance with the following equation: […]\nwherein, Q represents the amount of drug permeated in the t period, A represents cell surface area, and represents the area (0.6 cm^2) of supporting film in this model, and C0 represents an initial concentration. The unit of Papp is expressed as cm·s^−1. […]", "data": [{"substance": "Rhodamine 123 [reference compound]", "values": [{"measurement": "Papp (apparent permeability coefficient)", "value": 4.89, "unit": "×10⁻⁶ cm/s"}]}]}
